Results published in patent publication US5304549A, “Amino acid derivatives” (Hoffmann-La Roche Inc., priority 1991, dated 1994).
pIC50: −log10 of the molar value.

Target: T1, collagenase obtained from a culture of human synovial fibroblasts (Homo sapiens, UniProt P03956)
T1 construct: endogenous in cells; host or cells: human synovial fibroblasts in culture (conditioned medium)
T1 sequence (P03956 100-469): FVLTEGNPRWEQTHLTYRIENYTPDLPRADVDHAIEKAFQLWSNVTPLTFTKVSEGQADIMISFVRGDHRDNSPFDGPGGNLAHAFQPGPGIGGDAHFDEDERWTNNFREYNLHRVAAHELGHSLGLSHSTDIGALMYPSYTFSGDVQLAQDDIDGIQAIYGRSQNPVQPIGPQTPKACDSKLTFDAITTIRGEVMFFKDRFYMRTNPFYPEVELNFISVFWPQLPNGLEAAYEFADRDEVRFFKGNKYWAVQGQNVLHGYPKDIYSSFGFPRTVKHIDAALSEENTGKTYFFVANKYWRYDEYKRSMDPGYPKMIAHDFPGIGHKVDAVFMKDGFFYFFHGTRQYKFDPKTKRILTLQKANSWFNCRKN
Assay: in vitro collagenase inhibiting activity (14C-acetylated collagen type I from rat tail tendons as substrate, microtitre plate assay)
Assay type: biochemical

- pIC50: 9.30
Structure (SMILES): CNC(=O)[C@@H](NC(=O)[C@H](CC(C)C)C(CN1C(=O)c2ccccc2C1=O)C(=O)NO)C(C)(C)C (single isomer, unassigned) [Compound E, N^2-[2(R)-[1(R or S)-(hydroxycarbamoyl)-2-phthalimidoethyl]-4-methylvaleryl]-N^1,3-dimethyl-L-valinamide]
